## Antibody variant affinities, Ab-14 light chain, assay 1

Values reported by Engelhart et al. 2022, doi:10.1038/s41597-022-01779-4 (FLAb copy).

Binding partner: SARS-CoV-2 spike HR2 peptide, sequence PDVDLGDISGINAS.

Parent scFv Ab-14: VH joined to VL by the linker GGGGSGGGGSGGGGS. Changes lie in the light chain CDRs alone.
VH: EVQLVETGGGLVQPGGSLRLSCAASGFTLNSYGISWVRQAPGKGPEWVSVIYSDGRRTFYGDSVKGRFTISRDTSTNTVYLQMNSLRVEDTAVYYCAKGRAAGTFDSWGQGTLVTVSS
VL: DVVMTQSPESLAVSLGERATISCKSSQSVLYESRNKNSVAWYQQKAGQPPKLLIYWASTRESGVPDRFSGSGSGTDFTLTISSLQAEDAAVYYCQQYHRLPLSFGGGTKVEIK

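The starting antibody came from a phage panning campaign against this peptide. In library AAYL50, one, two or three CDR residues were substituted; doubles and triples were drawn at random. The scFvs were displayed on barcoded MATa yeast, the peptide on MATalpha yeast. Mating (16 h, 30 °C) was followed by selection of diploids and sequencing of their barcodes. Read counts were normalised to the haploid input and turned into Kd by a linear fit to BCL2-family pairs of known affinity, for each replicate. There are three technical replicates.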

Changes read parent residue, position, new residue, counted from the first residue of the VL shown. Numbers give log10(Kd / nM), so 0 is 1 nM and 3 is 1 µM. Smaller is tighter. A mean of the replicates is given; it leaves out those without a signal. An entry "n.d." has no value in the source: the pair was not observed among the diploids in that replicate. This suggests poor binding but is not conclusive. Parent in this assay: reference entry 0.65, copy in this library 1.68. As a blank, each scFv also met three strains without target: over library AAYL50, 18% of these pairings were detected, typically at 4.19 and seldom below 2.99. Also given: how often the same scFv was detected with the empty control strains, with their mean in brackets.

changes | replicates, log10 nM | mean log10 Kd (nM) | control signals
Y31V/S38F/A40G | n.d. n.d. n.d. | n.d. | 0 of 9
W56A/Q95F/Q96T | n.d. n.d. n.d. | n.d. | 0 of 9
R60F/H98S/L100S | n.d. n.d. n.d. | n.d. | 0 of 9
A57N/L102S | 4.79 4.92 3.99 | 4.57 | 3 of 9 (4.24)
R34M/S58P/T59E | n.d. n.d. n.d. | n.d. | 0 of 9
Q27F/K36Q/V39F | 2.49 2.78 2.39 | 2.55 | 3 of 9 (3.58)
K24L/R34Y/S58T | 1.19 1.49 1.41 | 1.36 | 0 of 9
S26C/T59F | 2.45 2.08 3.06 | 2.53 | 1 of 9 (3.30)
L30E/H98N/R99L | 1.65 1.78 2.10 | 1.84 | 4 of 9 (4.42)
S28Y/A57Q/Y97K | 2.46 n.d. 2.44 | 2.45 | 0 of 9
Q96P/L100G | 2.33 2.63 2.42 | 2.46 | 3 of 9 (4.32)
S28H/S38G/T59L | n.d. 2.82 3.94 | 3.38 | 3 of 9 (4.15)
N37S/A40F/E61C | n.d. n.d. 4.83 | 4.83 | 2 of 9 (4.38)
S38K/V39H | n.d. n.d. 4.58 | 4.58 | 2 of 9 (5.39)
E32A/A40R/R99M | n.d. n.d. n.d. | n.d. | 0 of 9
W56C/R99L/L100Q | n.d. 4.01 n.d. | 4.01 | 5 of 9 (4.91)
K24R/V29D/E61I | 0.85 0.99 0.90 | 0.91 | 0 of 9
S28I/E61Q/L102I | 2.74 2.78 3.30 | 2.94 | 6 of 9 (5.01)
K24E/R34A/S103G | 2.64 2.26 2.35 | 2.42 | 4 of 9 (4.56)
E32A/N37P/S103E | n.d. n.d. n.d. | n.d. | 0 of 9
Y31L/S38C/T59A | 0.97 1.11 1.19 | 1.09 | 0 of 9
L30R/A40S/S62V | n.d. n.d. n.d. | n.d. | 1 of 9 (3.92)
E61C/L102C/S103Y | n.d. n.d. n.d. | n.d. | 0 of 9
S26L/L30A | 1.17 1.33 1.28 | 1.26 | 3 of 9 (4.29)
S25Q/S58E/Q95N | 1.87 1.90 2.02 | 1.93 | 5 of 9 (4.36)
K36H/S38L/V39L | n.d. n.d. n.d. | n.d. | 0 of 9
V39D | n.d. n.d. n.d. | n.d. | 0 of 9
S33E/N35S/S62R | 0.69 0.88 0.83 | 0.80 | 4 of 9 (5.17)
K24N/Y31R/S33V | 2.60 2.74 2.45 | 2.60 | 2 of 9 (3.55)
S28P/S38L/V39H | 5.32 4.09 n.d. | 4.71 | 1 of 9 (3.72)
S33P/R34H/A40G | n.d. n.d. n.d. | n.d. | 0 of 9
V39N/Q95M/H98R | n.d. 3.51 n.d. | 3.51 | 3 of 9 (4.50)
S38F/A40P/L100G | n.d. n.d. n.d. | n.d. | 0 of 9
R99H | 4.07 2.70 2.62 | 3.13 | 5 of 9 (4.19)
S28G/W56Y/R99L | 1.27 1.09 1.30 | 1.22 | 0 of 9
S26D/S33W/N37W | 2.57 2.60 2.52 | 2.56 | 0 of 9
S38A/V39C/S58Y | n.d. n.d. n.d. | n.d. | 1 of 9 (3.08)
S58V/R60F/E61I | n.d. n.d. n.d. | n.d. | 0 of 9
Q27F/S103K | 2.10 2.63 2.85 | 2.53 | 4 of 9 (4.18)
E32T/Y97G/P101S | 4.45 n.d. 4.19 | 4.32 | 0 of 9
Y31V/P101E | n.d. n.d. n.d. | n.d. | 0 of 9
V29T/L30K/S103T | 1.56 1.79 1.15 | 1.50 | 0 of 9

A selection of 5 entries from above:

changes | replicates, log10 nM | mean log10 Kd (nM) | control signals
S38F/A40P/L100G | n.d. n.d. n.d. | n.d. | 0 of 9
W56A/Q95F/Q96T | n.d. n.d. n.d. | n.d. | 0 of 9
Q27F/S103K | 2.10 2.63 2.85 | 2.53 | 4 of 9 (4.18)
Y31L/S38C/T59A | 0.97 1.11 1.19 | 1.09 | 0 of 9
S28H/S38G/T59L | n.d. 2.82 3.94 | 3.38 | 3 of 9 (4.15)